In US11661439B2, “Peptide hydrogels and use thereof” (The United States of America, as represented by the …, priority 2017, dated 2023) one finds lymphocytic immune response data, which are given here for one substance.

For this series the following is noted: subcutaneous, days 1, 11 and 30, H&E.

With Ac-VEVSVSVEV^DPPTEVSVEVEV-NH2 [AcVES3], the lymphocytic immune response entry was “minimal (at most)”.
